# Source: patent US11384150B2, “Antibody-drug conjugates and uses thereof” (Development Center for Biotechnology, priority 2016, dated 2022)
# Test system: SW48 colon cancer cells (wild-type BRAF and KRAS)
# Experiment: Efficacy (viability) on SW48 colon cancer cells
# Format: cell-based
# Conditions: cetuximab 1 ug/ml (FIG. 3)
substance,measurement,value
cetuximab,sensitivity of cells to treatment,sensitive
